This assay addresses estrogen receptors in MCF7 cells (Homo sapiens (Human), UniProt P03372). The assay is described as follows: Degradation of estrogen receptors in MCF7 cells (in-cell western). Type of assay: cell-based. Conditions: 24 hours, 0.1 µM fulvestrant = 100% degradation control, read-out: Maximum degradation rate. As for the experimental part:
The purpose of the experiment is to determine the degradation activity of the compounds of the present invention on endogenously expressed estrogen receptors in MCF7 cells, and to evaluate the activity of the compounds according to DC50 and maximum degradation efficiency.
MCF7 cells (ATCC, HTB-22) were cultured in DMEM (Gibco, 11995-065) complete medium containing 10% fetal bovine serum. On the first day of the experiment, MCF7 cells were inoculated in a 384-well plate at a density of 3000 cells/well using the complete medium, and cultured in a 37° C., 5% CO2 cell incubator. The compounds to be tested were dissolved in DMSO with a stock concentration of 10 mM, the solution was diluted with Echo 550 (Labcyte Inc.) and added to the cell culture plate. Each compound with the starting concentration for treatment of 100 nM was subjected to 3-fold gradient dilution with 9 concentration points. […] After washing with PBST 3 times, the fluorescence signal of each well was read using Odyssey CLx, and the value of Chanel 800 (ER)/Chanel 680 (GAPDH) was calculated. The wells treated with 0.1 µM fulvestrant were used as the 100% degradation control, and the degradation rate at each concentration point was calculated. The data were analyzed and processed by XlLfit, and the degradation activity DC50 and the maximum degradation rate Imax of each compound were calculated.

Protein sequences, listed by entry. Tags and fused reporters are not part of them.
UniProt P03372, whole entry: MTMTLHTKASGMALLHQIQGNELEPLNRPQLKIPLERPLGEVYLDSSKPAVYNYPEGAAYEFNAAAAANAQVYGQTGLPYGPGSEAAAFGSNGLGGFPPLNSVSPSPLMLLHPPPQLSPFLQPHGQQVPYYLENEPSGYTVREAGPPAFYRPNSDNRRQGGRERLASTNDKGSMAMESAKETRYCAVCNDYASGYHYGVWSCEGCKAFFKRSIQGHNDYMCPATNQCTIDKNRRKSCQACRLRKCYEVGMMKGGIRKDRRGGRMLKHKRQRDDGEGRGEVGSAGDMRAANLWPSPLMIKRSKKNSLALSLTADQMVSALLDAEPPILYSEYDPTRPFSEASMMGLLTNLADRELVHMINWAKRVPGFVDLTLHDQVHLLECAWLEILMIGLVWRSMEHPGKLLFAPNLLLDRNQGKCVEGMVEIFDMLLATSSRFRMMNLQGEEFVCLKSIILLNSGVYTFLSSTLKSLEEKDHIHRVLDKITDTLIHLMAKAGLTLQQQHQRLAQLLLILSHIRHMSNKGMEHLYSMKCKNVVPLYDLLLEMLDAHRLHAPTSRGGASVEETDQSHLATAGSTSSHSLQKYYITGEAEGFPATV

The results in this text go back to patent US20230348459A1, “PYRROLIDINE COMPOUND AND USE THEREOF” (SIMCERE PHARMACEUTICAL CO., LTD., priority 2020, published 2023).

For the molecule `C[C@@H]1Cc2c([nH]c3ccccc23)C(c2c(F)cc(N[C@H]3CCN(CCCF)C3)cc2F)N1CC(F)(F)CO` (stereo in doubt) [Example 7, 3-((1S,3R)-1-(2,6-difluoro-4-(((S)-1-(3-fluoropropyl)pyrrolidin-3-yl)amino)phenyl)-3-methyl-3,4-dihydro-1H-pyridino [3,4-b]indole-2(9H)-yl)-2,2-difluoropropane-1-ol], the Dmax was determined as 99%.
